Km, kcat and kcat/Km data for 2 sequences are collected here from PMC4785404, “The three-dimensional structure of Clostridium absonum 7α-hydroxysteroid dehydrogenase: new insights into the conserved arginines for NADP(H) recognition” (Scientific Reports, 2016).

For this data set, the system named is NC(=O)c1ccc[n+]([C@@H]2O[C@H](COP(=O)(O)OP(=O)(O)OC[C@H]3O[C@@H](n4cnc5c(N)ncnc54)[C@H](OP(=O)(O)O)[C@@H]3O)[C@@H](O)[C@H]2O)c1. Nature of the data set: purified protein. Conditions: assay conditions by cited earlier methods; co-substrate not given; SD in parentheses; varied: cofactor.

In general, kcat refers to the maximal rate divided by the concentration of active sites. One may read the kcat/Km as the turnover number divided by the Michaelis constant.

For “CA 7α-HSDH (Clostridium sardiniense; R194G)”, the Km is given as 0.72 (0.06) mM, the kcat was found to be 28.7 s⁻¹ and the kcat/Km came out at 39800 M⁻¹ s⁻¹.

As to “CA 7α-HSDH (Clostridium sardiniense; R16G)”, the Km is given as 1.77 (0.13) mM, the catalytic constant (kcat) was 58.5 s⁻¹ and the specificity constant (kcat/Km) came out at 33200 M⁻¹ s⁻¹.
